The results in this text go back to publication PMC10388362, “Fluorescent Ligands Enable Target Engagement Studies for the Intracellular Allosteric Binding Site of the Chemokine Receptor CXCR2” (Journal of Medicinal Chemistry, 2023).

Amino acid sequences for entries named in this document (tags omitted).
UniProt P25025, whole entry: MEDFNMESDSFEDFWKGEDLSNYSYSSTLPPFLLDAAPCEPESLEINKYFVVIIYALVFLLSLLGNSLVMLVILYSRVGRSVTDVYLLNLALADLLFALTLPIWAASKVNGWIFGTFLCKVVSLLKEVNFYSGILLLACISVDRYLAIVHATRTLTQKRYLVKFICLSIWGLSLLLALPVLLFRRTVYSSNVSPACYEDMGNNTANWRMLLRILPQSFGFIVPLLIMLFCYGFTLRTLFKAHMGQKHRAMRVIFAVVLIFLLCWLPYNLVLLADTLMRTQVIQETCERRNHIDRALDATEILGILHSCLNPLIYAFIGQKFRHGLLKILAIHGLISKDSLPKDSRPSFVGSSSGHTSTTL

Holding throughout (set-up): Promega pNLF1-C (Nluc) #CXCR20TN00; host or cells: HEK293T, transient transfection (PEI)
Assay [1] concerns the target T1, CXCR2 (Homo sapiens, UniProt P25025). Kind of assay: Membrane-based NanoBRET competition assay with 9a. In kind it is binding. The conditions noted are these: competition with 9a (50 nM), CXCR2_Nluc membranes. (Bioluminescence resonance energy transfer reports proximity on the nanometre scale.)
The target in assay [2] is T1, CXCR2. In words: Membrane-based NanoBRET competition kinetic assay with 9a. The conditions noted are these: kinetic competitive binding with 9a (50 nM), CXCR2_Nluc membranes; read-out: residence time tr. How it is done:
The obtained data were analyzed using the kinetics of the competitive binding algorithm in PRISM9.5 (GraphPad) to determine competition binding kinetics.

The target in assay [3] is T1, CXCR2. Kind of assay: Live cell NanoBRET competition binding with 9a. Particulars: competition with 9a (50 nM), live HEK293T cells expressing CXCR2_Nluc.

For `O=C(Nc1ccc([N+](=O)[O-])cc1O)Nc1ccccc1Br` [compound 4], the Ki was 38.6 nM at CXCR2 [1] (read-out: Ki), 38 nM at CXCR2 [1] (read-out: pKi (converted)), 2.16 nM at CXCR2 [3] (read-out: Ki) and 2.09 nM on CXCR2 [3] (read-out: pKi (converted)). Besides, the residence time on CXCR2 [2] was found to be 2.7 ± 0.6 min.
